Assay results from patent publication US20250221966A1, “RXFP1 AGONISTS” (BRISTOL-MYERS SQUIBB COMPANY, priority 2021, published 2025).

By UniProt entry, the sequences of proteins in these tests, tags left out.
UniProt Q9HBX9, whole entry: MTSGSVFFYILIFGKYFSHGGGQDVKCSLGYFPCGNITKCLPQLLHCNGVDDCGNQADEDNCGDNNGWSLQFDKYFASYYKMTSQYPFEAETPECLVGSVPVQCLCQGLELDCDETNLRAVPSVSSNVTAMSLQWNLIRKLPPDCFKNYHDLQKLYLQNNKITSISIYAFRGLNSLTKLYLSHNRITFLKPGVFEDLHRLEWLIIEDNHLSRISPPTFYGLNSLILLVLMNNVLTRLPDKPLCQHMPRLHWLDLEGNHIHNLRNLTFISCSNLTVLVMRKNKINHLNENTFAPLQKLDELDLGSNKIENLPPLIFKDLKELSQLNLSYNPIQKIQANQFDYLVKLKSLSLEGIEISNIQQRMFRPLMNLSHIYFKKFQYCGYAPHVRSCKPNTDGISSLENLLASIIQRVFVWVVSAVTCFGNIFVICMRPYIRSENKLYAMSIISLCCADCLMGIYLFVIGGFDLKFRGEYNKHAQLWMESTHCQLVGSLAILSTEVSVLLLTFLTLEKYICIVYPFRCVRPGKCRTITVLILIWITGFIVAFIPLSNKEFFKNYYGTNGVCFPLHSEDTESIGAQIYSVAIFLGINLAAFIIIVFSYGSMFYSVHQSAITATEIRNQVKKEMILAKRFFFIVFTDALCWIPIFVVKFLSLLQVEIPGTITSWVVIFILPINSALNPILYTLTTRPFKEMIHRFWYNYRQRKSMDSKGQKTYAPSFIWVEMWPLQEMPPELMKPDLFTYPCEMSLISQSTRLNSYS

molecular target: human RXFP1 (Homo sapiens, UniProt Q9HBX9); assay: RXFP1 cAMP assay (hRXFP1 HEK293 cAMP assay, HTRF); conditions: read-out: cAMP hRXFP1 HEK293 Assay EC50, HEK293 cells stably expressing human RXFP1, 30 min at room temperature

EC50 [nM] | Compound
1660 | COc1ccc(C2CN(C(C)=O)C2)cc1C(=O)NC1C2CCC(C2=CC(F)(F)F)C1C(=O)Nc1ccc(F)c(C(F)(F)F)c1 (stereo not shown)
23.9 | COc1ccc(C2=NOC3COCC23)cc1C(=O)N[C@H]1[C@@H](C(=O)NC2(C)CCC2)[C@H]2CC[C@@H]1/C2=C\C1CC1 (stereo partly shown)
20 | COc1ccc(-c2cc(NS(C)(=O)=O)ccc2F)cc1C(=O)N[C@@H]1C2CCC(/C2=C/C(F)(F)F)[C@@H]1C(=O)Nc1ccc(F)c(C(F)(F)F)c1 (stereo partly shown)
25 | COc1ccc(-c2ccc(N3CCOCC3)nc2)cc1C(=O)N[C@@H]1C2CCC(/C2=C/C(C)C)[C@@H]1C(=O)Nc1ccc(F)c(C(F)(F)F)c1 (stereo partly shown)
185 | COc1ccc([C@@H]2CO[C@H]3[C@@H]2OC[C@@H]3O)cc1C(=O)N[C@H]1[C@@H](C(=O)Nc2ccc(F)c(C(F)(F)F)c2)[C@H]2CC[C@@H]1/C2=C\C(F)(F)F
662 | COc1ccc(-n2ccccc2=O)cc1C(=O)N[C@@H]1C2CCC(/C2=C/C(F)(F)F)[C@@H]1C(=O)Nc1ccc(F)c(C(F)(F)F)c1 (stereo partly shown)
747 | COc1ccc(C2CCOCC2)cc1C(=O)NC1C2CCC(C2=CC(F)(F)F)C1C(=O)Nc1ccc(F)c(C(F)(F)F)c1 (stereo not shown)
807 | COc1ccc(C2CCNC2)cc1C(=O)NC1C2CCC(C2=CC(F)(F)F)C1C(=O)Nc1ccc(F)c(C(F)(F)F)c1 (stereo not shown)
185 | COc1ccc(C2=NOC3C4CC(C(=O)N4)C23)cc1C(=O)N[C@H]1[C@@H](C(=O)Nc2ccc(F)c(C(F)(F)F)c2)[C@H]2CC[C@@H]1/C2=C\C1CC1 (single isomer, unassigned) [631]
3560 | COc1ccc(N2CCCC(N)C2)cc1C(=O)NC1C2CCC(C2=CC(F)(F)F)C1C(=O)Nc1ccc(F)c(C(F)(F)F)c1 (stereo not shown)
56.3 | COc1ccc(C2CN(C(=O)C3CCC(O)CC3)C2)cc1C(=O)NC1C2CCC(C2=CC2CC2)C1C(=O)Nc1ccc(F)c(C(F)(F)F)c1 (stereo not shown)
15 | COc1ccc(-c2cc(C(=O)O)ccc2F)cc1C(=O)N[C@@H]1C2CCC(/C2=C/C2CC2)[C@@H]1C(=O)Nc1cccc(OC(F)(F)F)c1 (stereo partly shown)
786 | COc1ccc(C2=NOC3(CCOCC3)C2)cc1C(=O)N[C@@H]1C2CCC(/C2=C/C(F)(F)F)[C@@H]1C(=O)Nc1ccc(F)c(C(F)(F)F)c1 (stereo partly shown)
1700 | COc1ccc(-c2cc(C(=O)O)ccc2F)cc1C(=O)N[C@@H]1C2CCC(/C2=C/C2CC2)[C@@H]1C(=O)NC(C)(C)c1cccc(C(F)(F)F)c1 (stereo partly shown)
71 | O=C(NC1CC(F)(F)C1)OC(c1ccc(F)c(-c2ccc(OCCO)c(C(=O)N[C@@H]3C4CCC(/C4=C/C4CC4)[C@@H]3C(=O)Nc3ccc(F)c(C(F)(F)F)c3)c2)c1)C(F)(F)F (stereo partly shown)
106 | COc1ccc(C2=NOC3COCC23)cc1C(=O)N[C@H]1[C@@H](C(=O)NC2CC3(CCC3)C2)[C@H]2CC[C@@H]1/C2=C\C1CC1 (stereo partly shown)
10.5 | COc1ccc(C2=NOC3C4CC(C(O)C4O)C23)cc1C(=O)N[C@H]1[C@@H](C(=O)NCC(C)(C)C)[C@H]2CC[C@@H]1/C2=C\C1CC1 (single isomer, unassigned)
788 | COc1ccc(N2CCCC2=O)cc1C(=O)N[C@H]1[C@@H](C(=O)Nc2ccc(F)c(C(F)(F)F)c2)[C@H]2CC[C@@H]1/C2=C\C(F)(F)F
58.1 | COc1ccc(C2CN(C(=O)[C@H]3CC[C@@H](O)CC3)C2)cc1C(=O)N[C@H]1[C@@H](C(=O)Nc2ccc(F)c(C(F)(F)F)c2)[C@H]2CC[C@@H]1/C2=C\C1CC1
6 | COc1ccc(C2=NOC3C4CCC(C4)C23)cc1C(=O)N[C@H]1[C@@H](C(=O)Nc2ccc(F)c(C(F)(F)F)c2)[C@H]2CC[C@@H]1/C2=C\C1CC1 (single isomer, unassigned) [428]
1040 | COc1ccc(N2CCCCC2=O)cc1C(=O)N[C@@H]1C2CCC(/C2=C/C(F)(F)F)[C@@H]1C(=O)Nc1ccc(F)c(C(F)(F)F)c1 (stereo partly shown)
86.1 | COc1cc(C)c(C2=NOC3CC(O)CC23)cc1C(=O)N[C@H]1[C@@H](C(=O)Nc2ccc(F)c(C(F)(F)F)c2)[C@H]2CC[C@@H]1/C2=C\C1CC1 (single isomer, unassigned) [590]
72 | COc1ccc(-c2ccc(N3CCOCC3)nc2)cc1C(=O)N[C@@H]1C2CCC(/C2=C/C(F)(F)F)[C@@H]1C(=O)Nc1ccc(F)c(C(F)(F)F)c1 (stereo partly shown)
2200 | COc1cc(F)c(F)cc1C(=O)N[C@H]1[C@@H](C(=O)Nc2ccc(F)c(C(F)(F)F)c2)[C@H]2CC[C@@H]1/C2=C\C#Cc1ccccc1
350 | COc1cc(F)c(F)cc1C(=O)N[C@H]1[C@@H](C(=O)Nc2ccc(F)c(C(F)(F)F)c2)[C@H]2CC[C@@H]1C2=C1C=CC=C1
1360 | COc1ccc(N2CCC(O)C2)cc1C(=O)N[C@@H]1C2CCC(/C2=C/C(F)(F)F)[C@@H]1C(=O)Nc1ccc(F)c(C(F)(F)F)c1 (stereo partly shown)
4.3 | COc1ccc(C2=NOC3C4CCC(C4)C23)cc1C(=O)N[C@H]1[C@@H](C(=O)Nc2ccc(F)c(C(F)(F)F)c2)[C@H]2CC[C@@H]1/C2=C\C1CC1 (single isomer, unassigned) [469]
314 | COc1cc(C)c(C2=NOC3CC(O)CC23)cc1C(=O)N[C@H]1[C@@H](C(=O)Nc2ccc(F)c(C(F)(F)F)c2)[C@H]2CC[C@@H]1/C2=C\C1CC1 (single isomer, unassigned) [658]

EC50 [nM] | Compound
1 | COc1ccc(-c2cc(C(OC(=O)NC3CC(F)(F)C3)C(F)(F)F)ccc2F)cc1C(=O)N[C@@H]1C2CCC(/C2=C/C2CC2)[C@@H]1C(=O)Nc1ccc(F)c(C(F)(F)F)c1 (stereo partly shown)
213 | COc1ccc(-n2ncccc2=O)cc1C(=O)N[C@H]1[C@@H](C(=O)Nc2ccc(F)c(C(F)(F)F)c2)[C@H]2CC[C@@H]1/C2=C\C(F)(F)F
1090 | O=C(N[C@@H]1C2CCC(/C2=C/C(F)(F)F)[C@@H]1C(=O)Nc1ccc(F)c(C(F)(F)F)c1)c1cc(Br)ccc1OCCO (stereo partly shown)
750 | COc1ccccc1C(=O)NC1C2CCC(C2=CC(F)(F)F)C1C(=O)Nc1ccc(F)c(C(F)(F)F)c1 (stereo not shown)
507 | COc1ccc(C2=NOC3C4CC(C(O)C4O)C23)cc1C(=O)N[C@H]1[C@@H](C(=O)Nc2ccc(F)c(C(F)(F)F)c2)[C@H]2CC[C@@H]1/C2=C\C1CC1 (single isomer, unassigned)
2520 | O=C(NC1C2CCC(C2=CC(F)(F)F)C1C(=O)Nc1ccc(F)c(C(F)(F)F)c1)c1c(F)cccc1OCc1ccccc1 (stereo not shown)
645 | COc1ccc(C2=NOC3C4CCC(C4)C23)cc1C(=O)N[C@H]1[C@@H](C(=O)Nc2ccc(F)c(C(F)(F)F)c2)[C@H]2CC[C@@H]1/C2=C\C1CC1 (single isomer, unassigned) [685]
4500 | COc1cc(F)c(F)cc1C(=O)N[C@@H]1C2CCC([C@@H]1C(=O)Nc1ccc(F)c(C(F)(F)F)c1)C21OCC(c2ccccc2)O1 (stereo partly shown)
33 | COc1ccc(-c2cc(NS(C)(=O)=O)ccc2C)cc1C(=O)N[C@@H]1C2CCC(C2=C(C)C)[C@@H]1C(=O)Nc1ccc(F)c(C(F)(F)F)c1 (stereo partly shown)
3.5 | COc1c(F)cc(C2=NOC3CC(CO)CC23)cc1C(=O)N[C@H]1[C@@H](C(=O)Nc2ccc(F)c(C(F)(F)F)c2)[C@H]2CC[C@@H]1/C2=C\C1CC1 (stereo partly shown)
369 | COc1ccc(N2CCC(OCc3ccccc3)C2)cc1C(=O)N[C@@H]1C2CCC(/C2=C/C(F)(F)F)[C@@H]1C(=O)Nc1ccc(F)c(C(F)(F)F)c1 (stereo partly shown)
3 | CNC(=O)OC(C(=O)OC)c1ccc(F)c(-c2ccc(OC)c(C(=O)N[C@H]3[C@@H](C(=O)Nc4ccc(F)c(C(F)(F)F)c4)[C@H]4CC[C@@H]3/C4=C\C3CC3)c2)c1 (stereo partly shown)
2230 | COc1ccc(C2CCCN(C(C)=O)C2)cc1C(=O)NC1C2CCC(C2=CC(F)(F)F)C1C(=O)Nc1ccc(F)c(C(F)(F)F)c1 (stereo not shown)
8.2 | COc1ccc(-c2ccc(C3=NOC4CC(O)CC34)cc2F)cc1C(=O)N[C@H]1[C@@H](C(=O)Nc2ccc(F)c(C(F)(F)F)c2)[C@H]2CC[C@@H]1/C2=C\C1CCCC1 (stereo partly shown)
1470 | COc1ccc(N2CC(CNC(=O)OC(C)(C)C)CC2=O)cc1C(=O)N[C@H]1[C@@H](C(=O)Nc2ccc(F)c(C(F)(F)F)c2)[C@H]2CC[C@@H]1/C2=C\C1CC1 (stereo partly shown)
168 | CN(C)c1c(Cl)cc(C2=NOC3COCC23)cc1C(=O)N[C@H]1[C@@H](C(=O)Nc2ccc(F)c(C(F)(F)F)c2)[C@H]2CC[C@@H]1/C2=C\C(F)(F)F (single isomer, unassigned)
9 | COc1ccc(-c2cc(C(O)C(F)(F)F)ccc2F)cc1C(=O)N[C@@H]1C2CCC(/C2=C/C2CC2)[C@@H]1C(=O)Nc1ccc(F)c(C(F)(F)F)c1 (single isomer, unassigned)
359 | COc1ccc(C2=NOC3(CCN(C(=O)OC(C)(C)C)C3)C2)cc1C(=O)N[C@H]1[C@@H](C(=O)Nc2ccc(F)c(C(F)(F)F)c2)[C@H]2CC[C@@H]1/C2=C\C1CC1 (stereo partly shown)
1180 | COc1ccc(-c2cnn(CCO)c2)cc1C(=O)NC1C2CCC(C2=CC(F)(F)F)C1C(=O)Nc1ccc(F)c(C(F)(F)F)c1 (stereo not shown)
338 | COc1ccc(N2CCCS2(=O)=O)cc1C(=O)N[C@@H]1C2CCC(/C2=C/C(F)(F)F)[C@@H]1C(=O)Nc1ccc(F)c(C(F)(F)F)c1 (stereo partly shown)
254 | COc1ccc(C2CCN(C(=O)c3ccccc3)C2)cc1C(=O)NC1C2CCC(C2=CC(F)(F)F)C1C(=O)Nc1ccc(F)c(C(F)(F)F)c1 (stereo not shown)
1200 | COc1ccc(C2CC(O)C(=O)N2C)cc1C(=O)N[C@H]1[C@@H](C(=O)Nc2ccc(F)c(C(F)(F)F)c2)[C@H]2CC[C@@H]1/C2=C\C(F)(F)F (stereo partly shown)
7.8 | COc1cc(C)c(C2=NOC3CC(O)CC23)cc1C(=O)N[C@H]1[C@@H](C(=O)Nc2ccc(F)c(C(F)(F)F)c2)[C@H]2CC[C@@H]1/C2=C\C1CC1 (single isomer, unassigned) [486]
69.2 | COc1ccc(C2=NOC3C4CC(C(=O)N4)C23)cc1C(=O)N[C@H]1[C@@H](C(=O)Nc2ccc(F)c(C(F)(F)F)c2)[C@H]2CC[C@@H]1/C2=C\C1CC1 (single isomer, unassigned) [576]
370 | COc1ccc(N2CCCC(C(=O)O)C2)cc1C(=O)N[C@@H]1C2CCC(/C2=C/c2ccccc2)[C@@H]1C(=O)Nc1ccc(F)c(C(F)(F)F)c1 (single isomer, unassigned)
3800 | COc1cc(F)c(F)cc1C(=O)N[C@@H]1C2CCC(C2=CC(=O)NCCCCc2ccccc2)[C@@H]1C(=O)Nc1ccc(F)c(C(F)(F)F)c1 (stereo partly shown)
8 | COc1ccc(-c2cc(NS(C)(=O)=O)ccc2F)cc1C(=O)N[C@@H]1C2CCC(C2=Cc2cnoc2)[C@@H]1C(=O)Nc1ccc(F)c(C(F)(F)F)c1 (stereo partly shown)
